Earlier results, collected in article PMC9181795, “Ibuprofen Favors Binding of Amyloid-β Peptide to Its Depot, Serum Albumin” (International Journal of Molecular Sciences, 2022).

Experiments:
AD = system: AD; design: method as in PMID 32715623, PMID 30859122, PMID 25023458; conditions: plasma exchange, replacement of endogenous albumin with therapeutic HSA; ref [16],[17],[18]; cited from earlier work
Aβ = conditions: cited from earlier work
Text: Multimerization of monomeric Aβ leads to the formation of soluble toxic oligomers, protofibrils, and insoluble mature fibrils, which assemble into amyloid plaques. Therefore, the Aβ therapeutics in clinical trials pursue avoidance of Aβ aggregation, aside from reduction of Aβ production and enhancement of Aβ clearance.

murine brain = conditions: intracerebroventricular; ref [19]; cited from earlier work

HSA: defatted human serum albumin extracted from blood under non-denaturing conditions (Merck #126654)
cognitive and functional decline in AD (AD): slowdown of cognitive and functional decline in AD | contribution to prevention of Aβ polymerization via Aβ binding (Aβ; plasma and CSF proteins, ref [7]): over 60% | share of total Aβ in plasma bound by HSA (Aβ; plasma, ref [9]): about 89% | result of direct delivery of exogenous HSA into brain (murine brain): positive results
